Assay results reported in article PMC9722229 (European journal of pharmacology, 2019).

Protein sequences, listed by entry. Tags and fused reporters are not part of them. Lines headed by an entry give the natural chain unless they say otherwise; changes in a name come on top.
UniProt Q12809: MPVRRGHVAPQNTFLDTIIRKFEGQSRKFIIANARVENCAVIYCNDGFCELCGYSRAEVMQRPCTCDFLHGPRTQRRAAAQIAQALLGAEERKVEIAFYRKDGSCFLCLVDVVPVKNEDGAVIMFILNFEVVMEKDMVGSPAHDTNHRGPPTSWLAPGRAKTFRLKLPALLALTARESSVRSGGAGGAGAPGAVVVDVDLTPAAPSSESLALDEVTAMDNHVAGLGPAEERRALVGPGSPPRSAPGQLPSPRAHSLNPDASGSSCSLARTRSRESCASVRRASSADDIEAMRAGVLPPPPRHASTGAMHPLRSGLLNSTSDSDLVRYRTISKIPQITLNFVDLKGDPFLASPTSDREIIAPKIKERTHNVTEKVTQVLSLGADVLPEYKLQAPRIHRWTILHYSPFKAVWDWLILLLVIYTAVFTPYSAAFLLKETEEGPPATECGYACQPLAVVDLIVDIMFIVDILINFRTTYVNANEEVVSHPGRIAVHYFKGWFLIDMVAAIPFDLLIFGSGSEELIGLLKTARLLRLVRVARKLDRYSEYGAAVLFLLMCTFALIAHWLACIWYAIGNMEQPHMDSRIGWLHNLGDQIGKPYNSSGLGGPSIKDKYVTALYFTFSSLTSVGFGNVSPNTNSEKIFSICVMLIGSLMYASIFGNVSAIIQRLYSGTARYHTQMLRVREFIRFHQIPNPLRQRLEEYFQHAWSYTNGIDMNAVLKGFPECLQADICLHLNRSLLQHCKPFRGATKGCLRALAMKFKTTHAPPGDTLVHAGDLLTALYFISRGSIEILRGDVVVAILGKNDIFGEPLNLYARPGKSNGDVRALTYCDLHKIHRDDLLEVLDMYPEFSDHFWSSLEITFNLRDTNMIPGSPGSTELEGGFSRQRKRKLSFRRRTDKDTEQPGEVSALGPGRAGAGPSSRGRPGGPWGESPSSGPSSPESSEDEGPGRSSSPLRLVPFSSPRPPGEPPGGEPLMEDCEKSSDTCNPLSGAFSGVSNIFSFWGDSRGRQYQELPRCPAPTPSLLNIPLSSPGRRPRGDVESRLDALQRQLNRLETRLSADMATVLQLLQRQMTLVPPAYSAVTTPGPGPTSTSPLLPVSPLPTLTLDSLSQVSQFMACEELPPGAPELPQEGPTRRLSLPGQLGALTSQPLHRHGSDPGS

Target: hERG channel (Homo sapiens, UniProt Q12809)

## COc1cc(N)c(Cl)cc1C(=O)NC1CCN(CCCOc2ccc(F)cc2)CC1OC (stereo not shown) [Cisapride, reference compound]
  Inhibition of the hERG channel (in words): potent inhibition
